Data reported in US20240360179A1, “STAPLED PEPTIDES AND METHODS THEREOF” (FOG PHARMACEUTICALS, INC., priority 2021, published 2024).

Sequences of proteins named here, by UniProt entry; tags and fusion partners are left off.
UniProt P35222, whole entry: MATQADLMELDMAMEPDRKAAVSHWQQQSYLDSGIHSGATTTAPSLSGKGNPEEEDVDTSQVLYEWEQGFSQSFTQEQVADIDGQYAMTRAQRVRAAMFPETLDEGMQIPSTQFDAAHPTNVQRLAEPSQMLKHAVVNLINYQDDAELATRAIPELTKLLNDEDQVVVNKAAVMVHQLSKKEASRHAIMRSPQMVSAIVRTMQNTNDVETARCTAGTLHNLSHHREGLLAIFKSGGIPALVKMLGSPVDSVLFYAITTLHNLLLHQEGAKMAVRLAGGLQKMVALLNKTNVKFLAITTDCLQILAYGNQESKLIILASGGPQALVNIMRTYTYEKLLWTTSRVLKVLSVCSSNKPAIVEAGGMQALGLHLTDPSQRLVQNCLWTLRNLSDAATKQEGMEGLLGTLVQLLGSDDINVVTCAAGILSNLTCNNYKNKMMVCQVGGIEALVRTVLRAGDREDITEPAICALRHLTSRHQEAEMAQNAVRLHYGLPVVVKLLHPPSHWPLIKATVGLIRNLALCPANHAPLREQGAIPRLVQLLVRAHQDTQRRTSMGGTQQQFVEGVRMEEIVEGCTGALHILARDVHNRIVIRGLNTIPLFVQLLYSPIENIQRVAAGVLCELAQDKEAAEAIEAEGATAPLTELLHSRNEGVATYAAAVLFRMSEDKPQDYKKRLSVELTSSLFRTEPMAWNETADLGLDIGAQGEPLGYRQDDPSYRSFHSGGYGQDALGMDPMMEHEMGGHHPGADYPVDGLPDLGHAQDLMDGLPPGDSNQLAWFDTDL

Assays:
[1] = target: beta-catenin/TCF4 interaction (Homo sapiens, UniProt P35222); assay: cell-based; parameters: host or cells: HEK293; conditions: NanoBRET Abs IC50 (uM)
[2] = target: T1, full-length B-Catenin (Uniprot ID P35222) (Homo sapiens, UniProt P35222); assay: biochemical; format: binding; conditions: beta-Catenin FP IC50 (nM), competition fluorescence polarization
T1 construct: 10 nM full-length B-Catenin (Uniprot ID P35222)

Row | SMILES | IC50 ([1]; absolute IC50) | IC50 [2] | IC50 [1]
1 | C[C@H](NC(=O)[C@@H]1CCC(=O)NCCCC[C@@H]2NC(=O)[C@H](Cc3ccccc3)NC(=O)[C@H](C)NC(=O)C(C)(C)NC(=O)[C@H](Cc3cccc(C(=O)O)c3)NC(=O)[C@H](CC(=O)O)NC(=O)[C@](C)(NC(=O)[C@@H]3CN(C(=O)c4ccccc4)CC=CCCCC(=O)N4CCC[C@@]4(C)C(=O)N[C@@H](CC(=O)O)C(=O)N3)CCCC=CCCCOC(=O)N3CC[C@@](C3)(NC2=O)C(=O)N[C@@H](Cc2ccsc2)C(=O)N[C@@H](Cc2csc3ccccc23)C(=O)N1)C(N)=O (relative stereo) [I-520, 5hexenyl-MePro-Asp-[Phc][Allyl]Dap-R5-Asp-3COOHF-Aib-Ala-Phe-Lys*3-PyrS2-3Thi-BztA-GlnR*3-Ala-NH2] | > 10 µM | < 50 nM | 
2 | CCCC[C@@H]1NC(=O)[C@H](Cc2cccc(C(=O)O)c2)NC(=O)[C@H](CC(=O)O)NC(=O)C2(CCCC=CCCCOC(=O)N3CC[C@@]4(C3)NC(=O)[C@H](CCCCNC(=O)CC[C@@H](C(=O)N[C@@H](CC(C)C)C(=O)N[C@@H](CO)C(N)=O)NC(=O)[C@H](Cc3csc5ccccc35)NC(=O)[C@H](Cc3ccccc3C(F)(F)F)NC4=O)NC(=O)[C@H](Cc3ccccc3)NC(=O)[C@H](C)NC1=O)CCCC=CC[C@]1(CCCN1C(C)=O)C(=O)N[C@@H](CC(=O)O)C(=O)N[C@@H](CC(C)(C)C)C(=O)N2 (relative stereo) [I-137, Ac-PL3-Asp-Npg-B5-Asp-3COOHF-nLeu-Ala-Phe-Lys*3-PyrS2-2F3MeF-BztA-GlnR*3-Leu-Ser-NH2] |  | < 50 nM | 1.5 to 3 µM
3 | CC(=O)N1CCC[C@]12CC=CCCCC1(CCCC=CCCCOC(=O)N3CC[C@@]4(C3)NC(=O)[C@H](CCCCN(C(C)C)C(=O)CCC[C@@H](C(=O)N[C@@H](C)C(N)=O)NC(=O)[C@H](Cc3csc5ccccc35)NC(=O)[C@H](Cc3ccccc3C(F)(F)F)NC4=O)NC(=O)[C@H](Cc3ccccc3)NC(=O)[C@H](C)NC(=O)[C@H](C)NC(=O)[C@H](Cc3cccc(C(=O)O)c3)NC(=O)[C@H](CC(=O)O)NC1=O)NC(=O)[C@H](CC(C)(C)C)NC(=O)[C@H](CC(=O)O)NC2=O (relative stereo) [I-188, Ac-PL3-Asp-Npg-B5-Asp-3COOHF-Ala-Ala-Phe-iPrLys*3-PyrS2-2F3MeF-BztA-hGlnR*3-Ala-NH2] |  | < 50 nM | 3 to 10 µM
4 | CC(=O)N1CCC[C@]12CC=CCCCC1(CCCC=CCCCOC(=O)N3CC[C@@]4(C3)NC(=O)[C@H](CCCCNC(=O)CC[C@@H](C(=O)N[C@@H](C)C(N)=O)NC(=O)[C@H](Cc3csc5ccccc35)NC(=O)[C@H](Cc3ccccc3C(F)(F)F)NC4=O)NC(=O)[C@H](Cc3ccccc3)NC(=O)[C@H](C)NC(=O)C(C)(C)NC(=O)[C@H](Cc3cc(C(F)(F)F)ccc3C(=O)O)NC(=O)[C@H](CC(=O)O)NC1=O)NC(=O)[C@H](CC(C)(C)C)NC(=O)[C@H](CC(=O)O)NC2=O (relative stereo) [I-204, Ac-PL3-Asp-Npg-B5-Asp-5F3Me2COOHF-Aib-Ala-Phe-Lys*3-PyrS2-2F3MeF-BztA-GlnR*3-Ala-NH2] |  | < 50 nM | 3 to 10 µM
5 | CC(=O)N1CCC[C@]12CC=CCCCC1(CCCC=CCCCOC(=O)N3CC[C@@]4(C3)NC(=O)[C@H](CCC(=O)NCCCC[C@@H](C(=O)N[C@@H](C)C(N)=O)NC(=O)[C@H](Cc3csc5ccccc35)NC(=O)[C@H](Cc3ccsc3)NC4=O)NC(=O)[C@H](Cc3ccccc3)NC(=O)[C@H](C)NC(=O)[C@H](C)NC(=O)[C@H](Cc3cccc(C(=O)O)c3)NC(=O)[C@H](CC(=O)O)NC1=O)NC(=O)[C@H](CC(C)(C)C)NC(=O)[C@H](CC(=O)O)NC2=O (relative stereo) [I-43, Ac-PL3-Asp-Npg-B5-Asp-3COOHF-Ala-Ala-Phe-GlnR*3-PyrS2-3Thi-BztA-Lys*3-Ala-NH2] |  | < 50 nM | 1.5 to 3 µM
6 | CC(=O)N1CCC[C@]12CC=CCCCC1(CCCC=CCCCOC(=O)N3CC[C@@]4(C3)NC(=O)[C@@H](CCC(=O)NCCCC[C@@H](C(N)=O)NC(=O)[C@H](Cc3csc5ccccc35)NC(=O)[C@H](Cc3ccsc3)NC4=O)NC(=O)[C@H](Cc3ccccc3)NC(=O)[C@H](C)NC(=O)[C@H](C)NC(=O)[C@H](Cc3cccc(C(=O)O)c3)NC(=O)[C@H](CC(=O)O)NC1=O)NC(=O)[C@H](CC(C)C)NC(=O)[C@H](CC(=O)O)NC2=O (single isomer, unassigned) [I-13, Ac-PL3-Asp-Leu-B5-Asp-3COOHF-Ala-Ala-Phe-DGlnR*3-PyrS2-3Thi-BztA-Lys*3-NH2] |  | < 50 nM | 3 to 10 µM

Continued, values first:

Row | IC50 ([1]; absolute IC50) | IC50 [2] | IC50 [1] | SMILES
7 | 1.5 to 3 µM | < 50 nM |  | CC(=O)N1CCC[C@]12CC=CCCCC1(CCCC=CCCCOC(=O)N3CC[C@@]4(C3)NC(=O)[C@H](CCCCNC(=O)CC[C@@H](C(=O)N[C@H](C(N)=O)[C@@H](C)O)NC(=O)[C@H](Cc3csc5ccccc35)NC(=O)[C@H](Cc3ccsc3)NC4=O)NC(=O)[C@H](Cc3ccccc3)NC(=O)[C@H](C)NC(=O)C(C)(C)NC(=O)[C@H](Cc3cccc(C(=O)O)c3)NC(=O)[C@H](CC(=O)O)NC1=O)NC(=O)[C@H](CC(C)(C)C)NC(=O)[C@H](CC(=O)O)NC2=O (relative stereo) [I-398, Ac-PL3-Asp-Npg-B5-Asp-3COOHF-Aib-Ala-Phe-Lys*3-PyrS2-3Thi-BztA-GlnR*3-Thr-NH2]
8 | < 1.5 µM | < 50 nM |  | CC(=O)N1CCC[C@]12CC=CCCCC1(CCCC=CCCCOC(=O)N3CC[C@@]4(C3)NC(=O)[C@H](CCCCn3cc(nn3)C[C@@H](C(=O)N[C@@H](CC(C)C)C(N)=O)NC(=O)[C@H](Cc3csc5ccccc35)NC(=O)[C@H](Cc3ccsc3)NC4=O)NC(=O)[C@H](Cc3ccccc3)NC(=O)[C@H](C)NC(=O)C(C)(C)NC(=O)[C@H](Cc3cccc(C(=O)O)c3)NC(=O)[C@H](CC(=O)O)NC1=O)NC(=O)[C@H](CC(C)(C)C)NC(=O)[C@H](CC(=O)O)NC2=O (stereo partly drawn) [I-414, Ac-PL3-Asp-Npg-B5-Asp-3COOHF-Aib-Ala-Phe-TriAzLys*3-PyrS2-3Thi-BztA-sAla*3-Leu-NH2]
9 | 3 to 10 µM | < 50 nM |  | CC(=O)N1CCC[C@]12CC=CCCCC1(CCCC=CCCCOC(=O)N3CC[C@@]4(C3)NC(=O)[C@H](CCCCNC(=O)CC[C@@H](C(=O)N[C@H](C(=O)N[C@@H](CC(=O)O)C(=O)N[C@@H](C)C(N)=O)C(C)C)NC(=O)[C@H](Cc3csc5ccccc35)NC(=O)[C@H](Cc3ccsc3)NC4=O)NC(=O)[C@H](Cc3ccccc3)NC(=O)[C@H](C)NC(=O)C(C)(C)NC(=O)[C@H](Cc3cccc(C(=O)O)c3)NC(=O)[C@H](CC(=O)O)NC1=O)NC(=O)[C@H](CC(C)(C)C)NC(=O)[C@H](CC(=O)O)NC2=O (relative stereo) [I-506, Ac-PL3-Asp-Npg-B5-Asp-3COOHF-Aib-Ala-Phe-Lys*3-PyrS2-3Thi-BztA-GlnR*3-Val-Asp-Ala-NH2]
10 |  | < 50 nM | 1.5 to 3 µM | CCCC[C@@H]1NC(=O)[C@H](CC(=O)O)NC(=O)[C@]2(CC=CCCCC3(CCCC=CCCCOC(=O)N4CC[C@@]5(C4)NC(=O)[C@H](CCCCNC(=O)CC[C@@H](C(=O)N[C@@H](C)C(N)=O)NC(=O)[C@H](Cc4csc6ccccc46)NC(=O)[C@H](Cc4ccsc4)NC5=O)NC(=O)[C@H](Cc4ccccc4)NC(=O)[C@H](C)NC(=O)C(C)(C)NC(=O)[C@H](Cc4cccc(C(=O)O)c4)NC(=O)[C@H](CC(=O)O)NC3=O)NC1=O)CCCN2C(C)=O (relative stereo) [I-245, Ac-PL3-Asp-nLeu-B5-Asp-3COOHF-Aib-Ala-Phe-Lys*3-PyrS2-3Thi-BztA-GlnR*3-Ala-NH2]
11 | 1.5 to 3 µM | < 50 nM |  | CC(=O)N1CCC[C@]12CC=CCCCC1(CCCC=CCCCOC(=O)N3CC[C@@]4(C3)NC(=O)[C@H](CCCCNC(=O)CC[C@@H](C(=O)N[C@H](C(=O)NC(C)(C)C(N)=O)C(C)C)NC(=O)[C@H](Cc3csc5ccccc35)NC(=O)[C@H](Cc3ccsc3)NC4=O)NC(=O)[C@H](Cc3ccccc3)NC(=O)[C@H](C)NC(=O)C(C)(C)NC(=O)[C@H](Cc3cccc(C(=O)O)c3)NC(=O)[C@H](CC(=O)O)NC1=O)NC(=O)[C@H](CC(C)(C)C)NC(=O)[C@H](CC(=O)O)NC2=O (single isomer, unassigned) [I-407, Ac-PL3-Asp-Npg-B5-Asp-3COOHF-Aib-Ala-Phe-Lys*3-PyrS2-3Thi-BztA-GlnR*3-Val-Aib-NH2]
12 |  | < 50 nM | 3 to 10 µM | CC(=O)N1CCC[C@]12CC=CCCCC1(CCCC=CCCCOC(=O)N3CC[C@@]4(C3)NC(=O)[C@H](CCCCNC(=O)CC[C@@H](C(=O)N[C@@H](C)C(N)=O)NC(=O)[C@H](Cc3csc5ccccc35)NC(=O)[C@H](Cc3ccccc3C(F)(F)F)NC4=O)NC(=O)[C@H](Cc3ccccc3)NC(=O)[C@H](C)NC(=O)C(C)(C)NC(=O)[C@H](Cc3cccc(C(=O)O)c3)NC(=O)[C@H](CC(=O)O)NC1=O)NC(=O)[C@H](CC(C)(C)C)NC(=O)[C@H]([C@@H](C)C(=O)O)NC2=O (relative stereo) [I-289, Ac-PL3-RbMeAsp-Npg-B5-Asp-3COOHF-Aib-Ala-Phe-Lys*3-PyrS2-2F3MeF-BztA-GlnR*3-Ala-NH2]
13 | > 10 µM | 50 to 200 nM |  | CC(=O)N1CCC[C@]12CC=CCCCC1(CCCC=CCCCOC(=O)N3CC[C@@]4(C3)NC(=O)[C@H](CCCCNC(=O)CC[C@@H](C(=O)N[C@@H](C)C(=O)N[C@@H](CCC(=O)O)C(=O)N[C@@H](C)C(=O)O)NC(=O)[C@H](Cc3csc5ccccc35)NC(=O)[C@H](Cc3ccccc3C(=O)O)NC4=O)NC(=O)[C@H](Cc3cccc(C(=O)O)c3)NC(=O)[C@H](C)NC(=O)C(C)(C)NC(=O)[C@H](Cc3cccc(C(=O)O)c3)NC(=O)[C@H](CC(=O)O)NC1=O)NC(=O)[C@H](CC(C)(C)C)NC(=O)[C@H](CC(=O)O)NC2=O (relative stereo) [I-352, Ac-PL3-Asp-Npg-B5-Asp-3COOHF-Aib-Ala-3COOHF-Lys*3-PyrS2-2COOHF-BztA-GlnR*3-Ala-Glu-Ala-OH]
